Chains of the proteins cited; added tags and fusions are not shown. Lines headed by an entry give the natural chain unless they say otherwise; changes in a name come on top.
UniProt P01116: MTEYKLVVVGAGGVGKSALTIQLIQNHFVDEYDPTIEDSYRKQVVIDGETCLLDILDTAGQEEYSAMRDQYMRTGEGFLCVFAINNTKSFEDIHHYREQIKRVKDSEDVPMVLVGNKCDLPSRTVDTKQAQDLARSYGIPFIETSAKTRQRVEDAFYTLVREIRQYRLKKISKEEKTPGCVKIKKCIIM

According to patent US11285156B2, “Substituted piperazines as KRAS G12C inhibitors” (Amgen Inc., priority 2018, dated 2022):

Molecular target: GDP-bound KRAS protein (aa 1-169), containing both G12C and C118A amino acid substitutions (Homo sapiens (Human), UniProt P01116, C118A/G12C)
Assay: Coupled nucleotide exchange assay (SOS-mediated nucleotide exchange, AlphaScreen)
Type: biochemical
Settings: read-out: Coupled exchange IC50 (5 min; μM); 5 min compound pre-incubation

C=CC(=O)N1C[C@H](C)N(c2nc(=O)n(-c3c(C(C)C)nc(CN(C)C)nc3C(C)C)c3nc(-c4ccccc4F)c(Cl)cc23)C[C@H]1C [Example 160, 4-((2S,5R)-4-Acryloyl-2,5-dimethylpiperazin-1-yl)-6-chloro-1-(2-((dimethylamino)methyl)-4,6-diisopropylpyrimidin-5-yl)-7-(2-fluorophenyl)pyrido[2,3-d]pyrimidin-2(1H)-one]
IC50: 0.081 µM
